In patent US20210188983A1, “POLYPEPTIDES FOR PREPARING DRUG CONJUGATES CAPABLE OF PROMOTING APOPTOSIS IN A CELL EXPRESSING AN OREXIN RECEPTOR” (UNIVERSITE DE MONTPELLIER, priority 2016, published 2021):

Test system: HEK-OX1R cells
Experiment: Inhibition of HEK-OX1R cell growth (cell counting)
Assay type: cell-based
Conditions: 0.1 μM, 48 h; untreated cells = 0% inhibition

Substance	Inhibition of cell growth, % [%]
Cetux « clicked »	52
Cetuximab [reference compound]	30
